Data as given in patent US4753949A, “2-chloronicergoline having antihypoxic activity” (Richter Gedeon Vegyeszeti Gyar Rt., priority 1985, dated 1988).

Amino acid sequences for entries named in this document (tags omitted).
UniProt P61169, whole entry: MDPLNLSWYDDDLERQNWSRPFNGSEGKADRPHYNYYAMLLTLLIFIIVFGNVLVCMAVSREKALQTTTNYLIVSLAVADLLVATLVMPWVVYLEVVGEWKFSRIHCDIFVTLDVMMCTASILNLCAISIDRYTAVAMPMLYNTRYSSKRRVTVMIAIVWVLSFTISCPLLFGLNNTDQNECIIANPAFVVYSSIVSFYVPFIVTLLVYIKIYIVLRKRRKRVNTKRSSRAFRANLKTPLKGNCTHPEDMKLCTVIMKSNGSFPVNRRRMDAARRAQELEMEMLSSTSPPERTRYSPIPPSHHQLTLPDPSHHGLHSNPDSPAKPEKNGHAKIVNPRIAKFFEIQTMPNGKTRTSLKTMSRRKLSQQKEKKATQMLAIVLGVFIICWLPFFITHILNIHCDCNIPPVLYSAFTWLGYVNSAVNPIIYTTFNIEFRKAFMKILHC

What was measured:
[1] = Antihypoxic effect: survival time under hypobaric hypoxic conditions (170 mmHg); format: in vivo, rats (male SHR); settings: 2.5 mg/kg
Method: The studies were carried out on male SHR rats weighing 160 to 180 g as well as on CFLP mice of both sexes weighing 18 to 21 g. The compounds to be tested were orally administered in a volume of 5 ml/kg of body-weight (in the case of rats) or in a volume of 10 ml/kg of body-weight (in case of mice) at the 60th minute before beginning the experiment.
Nicergoline was dissolved in a tartaric acid solution of 0.4%, whereas the compounds to be tested were dissolved in a TWEEN 80 solution of 5% and diluted to the desired concentration by adding physiological saline.
The results are expressed as percentages.
Investigation of the antihypoxic effect
[I. Baumel et al.: Proc. Soc. Exp. Ther. Biol. N.Y. 132, 629 (1969]
Rats (n=5) were treated with various doses of the compounds to be tested and after 60 minutes the survival time was measured under hypobaric hypoxic conditions (170 mmHg). In the Table, the survival time is expressed as the percentage of that of the control group.

[2] = biological target: T1, D-2 receptor (Rattus norvegicus, UniProt P61169); assay: D-2 receptor binding (3H-spiroperidol); design: species or system Hannover Wistar rats; settings: ratio of IC50 values
T1 construct: the striatum from their cortex was prepared; from tissue; host or cells: striatum membranes of Hannover Wistar rats
Method: Investigation of the D-2 receptor binding
Hannover Wistar rats were decapitated and the striatum from their cortex was prepared. The striata were homogenized in a 10-fold volume of a cold buffer solution (50 mmoles of TRIS HCl, 120 mmoles of NaCl, 2 mmoles of KCl, 1 mmole of MgCl2 and 5 mmoles of CaCl2 at pH 7.4) and centrifuged at 45000 g for 15 minutes.
For investigating the D-2 receptor binding, a membrane preparation, a buffer, a ligand (0.5 nmole of ^3 H-spiroperidol) and the compound to be tested in a defined concentration were used in a total volume of 2 ml.

CO[C@]12C[C@@H](COC(=O)c3cncc(Br)c3)CN(C)[C@@H]1Cc1cn(C)c3cccc2c13 [Nicergoline, 1,6-dimethyl-10α-methoxyergoline-8β-methanol 5-bromonicotinate]
mean survival time under lethal hypobaric hypoxic conditions (in words) [1]: not influenced
Selectivity ratio D-2/α1 [2]: 13.5 nmole/nmole
